## Yeast mating assay B: variants of the scFv Ab-14

The target is the same throughout: PDVDLGDISGINAS, from the HR2 region of SARS-CoV-2 spike.

The variants keep the heavy chain, the linker and the frameworks of Ab-14 (scFv order VH, a 15-residue (Gly4Ser)3 linker, VL).
VH: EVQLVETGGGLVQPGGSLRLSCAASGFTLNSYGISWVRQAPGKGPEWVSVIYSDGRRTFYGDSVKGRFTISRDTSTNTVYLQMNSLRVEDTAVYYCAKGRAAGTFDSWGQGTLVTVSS
VL: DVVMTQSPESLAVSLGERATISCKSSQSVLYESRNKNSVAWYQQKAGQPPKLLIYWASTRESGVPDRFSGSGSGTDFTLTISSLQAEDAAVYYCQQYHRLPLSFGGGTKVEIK

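Phage display of a naive human antibody library on the peptide gave the parent. These sequences belong to a second round, designed from the earlier measurements on random variants of the parent. Group labels follow the data file (Ctrl: baseline library sampled from a position-specific scoring matrix, with some repeated check sequences; GP: Gaussian process model; GPLM: also part of the Gaussian process libraries; HC: hill climbing; Gen: genetic algorithm; Gibbs: Gibbs sampling; a sequence that several methods proposed may carry one label only). In AlphaSeq, yeast of one mating type display the scFv and yeast of the other type display the target. After mating in shaken culture at 30 °C for 16 h, diploids were selected and their barcode pairs sequenced. A regression on co-assayed BCL2-family reference pairs converts the normalised counts of each replicate to an apparent Kd. Mating was done six times.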

Each variant is given by its three light chain CDRs, as the data file delimits them; those of the parent are KSSQSVLYESRNKNSVA, WASTRES, QQYHRLPLS. This list holds designs with at most six substitutions. Scale: log10 of Kd in nM, estimated from mating counts; low values are strong binders. Where no diploid with the target was found in that replicate, the entry reads "nd": below detection, most likely a poor binder, though not proof of it.

For KLSQSVLYESRNKNSVA | EASTREQ | QQYHRLPLS [GP_Gen], the assay gave -0.40, -0.49, -0.84, -0.83, -0.94, -0.62. Variant KVSQSVLYESRNKNNVA | EASQRES | QQYHRLPLS [GP_Gen] showed -0.29, -0.56, -0.52, -0.70, -0.80, -0.46. For KVEQSELYESRNKNSVA | EASTRES | QQYHRLPLS [GP_Gen], the assay gave 0.35, -0.13, -0.04, -0.01, 0.10, 0.12. Variant KSSDSVLYISRNKNSVA | WASTRES | QQYHRLPLS [Ctrl] gave nd, nd, nd, nd, nd, nd. With KQSQSVLYEWRNKNNVA | DASTRES | QQYHRLPLS [GP_HC] the result was -0.39, -0.58, -0.49, -0.67, -0.80, -0.39. Variant KSSQSELYESRNKNSVA | NASQREQ | QQYHRLPLS [GP_Gen] gave 0.02, 0.05, 0.16, 0.02, 0.36, 0.00. For KSSQSVLYESMFKNSVA | WATEREA | QQYHRLPLS [Ctrl], the assay gave 1.39, 1.34, 1.29, 1.04, 1.77, 1.12.

For KLSQSVLYDSQNKNSVA | QASTRES | QQVVRLPLS [Ctrl], the assay gave 0.73, 0.91, 1.33, 0.75, 0.84, 1.09. Variant KISQSVLYESRNKNNVA | EASTRES | QQYHRLPLS [GP_Gen] gave -0.30, -0.39, -0.66, -0.63, -0.57, -0.25. Variant KSSDSVLYESRNKNSVA | WASTRES | QQYHRAPLS [Ctrl] gave nd, nd, nd, nd, nd, nd. For KVSPSVLYESRNKNSVA | EASTREQ | QQYHRLPLS [GP_Gen], the assay gave 0.19, 0.01, 0.00, -0.11, -0.07, 0.15. For KFQQSELYESRNKNSVA | NASQRLS | QQYHRLPLS [GP_Gen], the assay gave 0.72, 0.29, 0.73, 0.44, 0.55, 0.92. For KFSQSVLYESRNKNSVA | WASARES | QQYHYLPLS [Ctrl], the assay gave nd, 1.38, 1.11, 1.28, 0.97, 1.26. Variant KMSQSVLYESRNKNSVA | WASTRES | QQYHRLPNS [Ctrl] showed 1.32, 0.12, 0.29, 0.06, 0.96, 1.04.

For KLSQSVDYESRNKNSVA | NAQTRMS | QQYHRLPLS [GP_Gibbs], the assay gave 0.20, -0.21, 0.01, -0.22, -0.18, 0.25. With YLSQSELYESRNKNSVA | NASTRES | QQYHRLPLS [GP_Gen] the result was 0.40, 0.13, 0.00, -0.10, -0.13, 0.13. For MSSQSVLYEHRNKNSVA | WASTREA | QQYHRLPLL [Ctrl], the assay gave nd, 2.42, 1.73, 1.57, 2.53, 2.26. Variant KSSQSVLYESRSKNSVA | WASTRES | QQQHRLPLS [Ctrl] gave nd, nd, nd, nd, nd, nd. With KVSQSVLYESQNKNSVA | WASTRES | QQYHRLPLS [Ctrl] the result was 0.73, 0.54, 0.63, 0.41, 0.64, 0.96. With KVSQSELYESRNKNSVA | NASYRES | QQYHRLPLS [GP_Gen] the result was 0.36, 0.05, 0.02, 0.10, 0.25, 0.29. Variant KSSQSVLYESRNINSVA | WASTRES | QQYHRLPLS [Ctrl] gave nd, nd, nd, nd, nd, nd.

Variant KLQQSTLYESRNKNSVA | NASTRCS | QQYHRLPLS [GP_Gen] gave -0.33, -0.35, -0.50, -0.46, -0.46, -0.36. For KIMQSVCMESRNKNSVA | NASKRES | QQYHRLPLS [GP_Gibbs], the assay gave 0.54, 0.21, 0.58, 0.22, 0.13, 0.63. Variant KISQSVLYESRNKNSVA | NASTREQ | QQYHRLPLS [GP_Gen] gave -0.68, -0.59, -0.76, -0.66, -0.74, -0.52. For KFSQSVLYESRTKNSVA | NAVTREQ | QQYHRLPLS [GP_HC], the assay gave 0.17, 0.01, 0.12, -0.10, -0.06, 0.09. For KSSQSVLSESRNTNSVA | WASTRES | QQYHELPES [Ctrl], the assay gave nd, nd, nd, nd, nd, nd. With KLSQSVLYESRTKNSVA | NAVTRET | QQYHRLPLS [GP_HC] the result was 0.18, -0.03, -0.12, -0.03, -0.24, 0.02. With KSSQSYLGESRNKNSVA | WASTRES | QQYHRLKLS [Ctrl] the result was nd, nd, nd, nd, nd, nd.

For KVSQSQLYESRNKNAVA | QASTRES | QQYHRLPLS [GP_Gen], the assay gave 0.04, -0.31, -0.74, -0.62, -0.66, -0.46. Variant KSSQSVLLEFRNKNSVA | WASTRVS | QQYHRLPLS [Ctrl] gave 2.20, nd, nd, nd, nd, nd. With KSSQSVLYEEANKNSVA | WASTRES | QQYHRLPLS [Ctrl] the result was nd, nd, nd, nd, nd, nd. For KFSQSVLYESTTGNSVA | NASTRES | QQYHRLPLS [GP_HC], the assay gave 0.42, 0.29, 0.23, 0.16, 0.34, 0.36. Variant KSSQSVLYEGRNKNSVA | WASSRES | QQYHRLPLS [Ctrl] gave nd, nd, 2.63, nd, 3.19, 2.06. With KVSQSFLYESRNKNSVA | DASQRES | QQYHRLPLS [GP_Gen] the result was -0.01, -0.21, -0.42, -0.43, -0.46, -0.34. Variant KLPQSMLYESRNWNSVA | QASTRES | QQYHRLPLT [GP_Gibbs] showed -0.13, -0.13, -0.01, -0.28, -0.28, 0.04.

Variant KSSQSVVYESRNKNSVA | WATTRES | QQYHRLPLS [Ctrl] gave nd, nd, nd, nd, nd, 2.64. With KVSFSDLLESRNKNSVA | EASTRES | QQYHRLPLS [GP_HC] the result was 0.28, 0.21, 0.09, 0.06, 0.30, 0.28. For KSSQSVLYESRNSNSVA | SASTRED | FQYHRLPLS [Ctrl], the assay gave nd, nd, 1.97, nd, nd, nd. With KMPQSELYESRNKNSVA | EASTRES | QQYHRLPLS [GP_Gen] the result was 0.16, -0.58, -0.65, -0.27, -0.24, -0.44. Variant KFQQSVLYESRNKNSVA | NASTRCS | QQYHRLPLS [GP_Gen] showed 0.11, -0.18, -0.23, -0.14, -0.20, 0.09. With KSSQSWLYESRNKNSVA | GASYRES | QQYHRLPLS [GPLM_HC] the result was 0.71, 0.15, -0.02, 0.05, 0.26, 0.19. For KSSQSGLYESENKNSVA | EASTRES | QQYHRLPLS [Ctrl], the assay gave nd, nd, nd, nd, nd, nd.

Top 3 of the variants detected in all replicates, tightest first:

| CDR-L1 | CDR-L2 | CDR-L3 | group | log10 Kd, replicates |
|---|---|---|---|---|
| KLSQSVLYESRNKNSVA | EASTREQ | QQYHRLPLS | GP_Gen | -0.40, -0.49, -0.84, -0.83, -0.94, -0.62 |
| KISQSVLYESRNKNSVA | NASTREQ | QQYHRLPLS | GP_Gen | -0.68, -0.59, -0.76, -0.66, -0.74, -0.52 |
| KVSQSVLYESRNKNNVA | EASQRES | QQYHRLPLS | GP_Gen | -0.29, -0.56, -0.52, -0.70, -0.80, -0.46 |

The authors' rule: three or more of the six replicates give a measured affinity, fewer mean a poor binder. Values of this round are not directly comparable with the first-round values of the same sequences. Of ten entries with the parent sequence, four were seen in most replicates (averages 0.34 to 2.37), three in one and three in none, so single entries are noisy. Three control strains display no target. For all light chain designs, 4% of the pairings with them gave a signal, with a median of 2.64 and one signal in twenty below 1.59, so weak values seen in few replicates may be background.

Reference: Li et al. 2023, doi:10.1038/s41467-023-39022-2. File: FLAb, binding data.